Data from patent US7838536B2, “Water-soluble zinc ionophores, zinc chelators, and/or zinc complexes and use for treating cancer” (priority 2006, dated 2010).

Conditions: mouse, in vivo

Row | Substance | maximum tested without evidence of toxicity [µmol/kg]
1 | 2-thiol-5-((2-(2-methoxyethoxy)ethoxy)methyl)pyridine-N-oxide, Zn complex [5-PEG-[2]-ZnHPT] | ≥ 120
2 | 2-thiol-5-((2-methoxyethoxy)methyl)pyridine-N-oxide, Zn complex [5-PEG-[1]-ZnHPT] | ≥ 100
